## scFv variants of Ab-14 (heavy chain) against a SARS-CoV-2 spike peptide

All variants were tested on one target, the spike HR2 peptide PDVDLGDISGINAS (SARS-CoV-2).

Parent scFv Ab-14: VH joined to VL by three GGGGS repeats. Changes lie in the heavy chain CDRs alone.
VH: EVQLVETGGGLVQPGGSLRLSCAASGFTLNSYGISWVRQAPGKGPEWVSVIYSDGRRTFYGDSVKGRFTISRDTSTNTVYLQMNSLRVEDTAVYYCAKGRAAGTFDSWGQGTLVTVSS
VL: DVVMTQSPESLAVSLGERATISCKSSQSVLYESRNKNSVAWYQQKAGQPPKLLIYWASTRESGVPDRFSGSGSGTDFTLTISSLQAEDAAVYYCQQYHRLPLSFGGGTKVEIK

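The starting antibody came from a phage panning campaign against this peptide. In library AAYL49, one, two or three CDR residues were substituted; doubles and triples were drawn at random. The scFvs were displayed on barcoded MATa yeast, the peptide on MATalpha yeast. The frequency of each diploid, read from paired DNA barcodes, reflects how well the two displayed proteins bind. Read counts were normalised to the haploid input and turned into Kd by a linear fit to BCL2-family pairs of known affinity, for each replicate. The assay was run in three technical replicates.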

The parent's heavy chain CDRs are GFTLNSYGIS, VIYSDGRRTFYGDSVK, GRAAGTFDS; each variant's own CDRs replace them letter for letter. Each Kd is an estimate from the mating assay, the geometric mean of the replicates in which the pair was seen; lower is stronger. "nd" marks a missing value. The strain was present, yet no cells mated with the target were sequenced in any replicate, which points to weak or no binding. Order: sorted from the lowest average up, undetected variants last. Empty control strains, which show no peptide, gave a signal in 15% of pairings with library AAYL49; the median was 11 µM and 95% of these signals were weaker than 680 nM. No background was subtracted.

apparent Kd,detected,CDR-H1,CDR-H2,CDR-H3
1.7 nM,3/3,GFTLNSYGIS,VIYADGRRTFYHDSVK,GSAAGTFDS
130 nM,3/3,GFTLNHYGIS,VVYSDGRRTFYGDSVK,GRAAGTFDS
150 nM,3/3,GFTLNSYGIS,VIYSDGRRTFYKNSVK,GRAMGTFDS
220 nM,2/3,QFTLNYYGIS,VIYWDGRRTFYGDSVK,GRAAGTFDS
580 nM,1/3,GFTLNSYLIS,VIYSDGRRTFYGCSVK,GRAAGTFDA
720 nM,1/3,GFTLNSYGIS,NIYSDGRRTFYGDSVK,GRGAGMFDS
1.0 µM,3/3,GFTLNSYGIS,VIYSDGLRTFYGDSVR,GRAAGTFAS
1.0 µM,1/3,GGTLNSRGIS,VIYSDGRRTFYYDSVK,GRAAGTFDS
1.2 µM,1/3,GFTLNSYGIS,VIASDGRRKFYGDSVK,GRLAGTFDS
2.6 µM,1/3,GFTSNSYGIS,VIYSDGRRTFYGDSVK,GRAAGTFKS
2.8 µM,3/3,GNTLNSYGIS,VIYSDGRRTFYGDSVK,GNAARTFDS
3.0 µM,1/3,GFTLNSYGII,KIYSDGRRTFYGDSVK,GRAAGTADS
4.3 µM,2/3,KFTLNSYNIS,VIYSDGRRTFYGDSVK,GRAAATFDS
4.7 µM,1/3,GFTLNSYGIS,TIYSDNPRTFYGDSVK,GRAAGTFDS
5.0 µM,3/3,GFTLNSYGIS,VIYSDGRRTFYGDSTK,GRQAGTFTS
6.6 µM,2/3,LCTLNSYGIS,VIYSDGRRTFYGDSVK,GEAAGTFDS
7.3 µM,2/3,GFTLNSYGIS,VIYSDGRRTFYGDRVK,SRAAGTDDS
8.2 µM,1/3,GFTLYSYGIS,VIYSDGYRTLYGDSVK,GRAAGTFDS
10 µM,1/3,GFFLNSCGIS,VIYSDGRRTFYGDSVK,GRAAGTWDS
12 µM,1/3,GGTLNSYGIS,TIYSDGRRTFYGDSVK,GRAAGTFDS
12 µM,2/3,GFTLNSYGQS,VIYSDGRRTFYGDSWK,GRADGTFDS
15 µM,1/3,GFTLNSYHIS,VIRSDGRRTFYGDSVK,GRAAGTFDI
18 µM,1/3,GFTLNSYLIS,VIYSDGRRYFYGDSVK,GRAARTFDS
20 µM,2/3,GITLNSYVIS,VIYSDGRRTFYGDSVK,GRAAGTFDE
23 µM,3/3,GFTLNSYGIS,VIYSDKRRTFYGDCVH,GRAAGTFDS
23 µM,2/3,GFTLNSMGIS,VHYSDGRRTFYGDSVK,GRCAGTFDS
26 µM,2/3,GFTLNSPGIS,VIYSDGRNTFYGDSVK,GRAIGTFDS
31 µM,1/3,GFTLNSYGIS,GIYSDGRRTFYGDEVK,GRAAWTFDS
33 µM,1/3,GFTLNHYGIS,VIYSDGRRTFYGDSVK,GHAAGTADS
33 µM,2/3,GFTLNSYGIS,VIYSDGRYTFWGDSIK,GRAAGTFDS
39 µM,2/3,GFTLNVYGIS,VIYSDGRRTFYGDSQK,GVAAGTFDS
49 µM,1/3,GFTLNSYGIS,VNYSDGRRTFYGDSVK,LRAAGTFDS
68 µM,1/3,GFTLRSYGIS,VIYSDGRFTFYGDSVK,GREAGTFDS
87 µM,2/3,FFTLNSYGIS,VIKSDGRRTFYGISVK,GRAAGTFDS
91 µM,1/3,GPTLNSYGFS,VIYSDSRRTFYGDSVK,GRAAGTFDS
110 µM,1/3,GFTCNSYGIA,VIYSDGRRTFYGDSVK,GRAAGTFDS
140 µM,1/3,GFTLNSYGII,VIYSDARRTMYGDSVK,GRAAGTFDS
170 µM,3/3,GFTLNSFGIL,VIYSDGRRTFYGDSDK,GRAAGTFDS
200 µM,2/3,GNTLNSYGIS,VIYSDGRRTNYGDSVK,GRAIGTFDS
nd,0/3,GFTLNSYGIS,VIYSWGRRTFYGWSVK,GRVAGTFDS
nd,0/3,GFTLNSYGIS,VIPWDGGRTFYGDSVK,GRAAGTFDS
nd,0/3,GFTLNSYGIS,VIISDGRPTFYQDSVK,GRAAGTFDS
nd,0/3,GFRLNSYGIS,VIYSDGRSTMYGDSVK,GRAAGTFDS
nd,0/3,GFFLNVYGIS,VIYSIGRRTFYGDSVK,GRAAGTFDS
nd,0/3,GFTLNAYGIS,VHYSDGRRTFYRDSVK,GRAAGTFDS
nd,0/3,GFTLNTYYIS,VIYSDGRRTFYGDSVK,GRAAGAFDS
nd,0/3,GFTLNSYGIS,VIYSDARRTFYGDSVK,GFAAGTFDS
nd,0/3,GFTLNSYGIV,WIYSDGRRTFYGDVVK,GRAAGTFDS
nd,0/3,GFTLNSYGMS,VIYSDGRRTFYQDSLK,GRAAGTFDS
nd,0/3,GFTLNSYSIS,VIYSDGRRTTYGDSVK,GRAAGVFDS
nd,0/3,GFTLNSYGIS,VIYSDPRNTFYGDSVK,GRAAGTFSS
nd,0/3,GFTLNSYGIS,VIYSDGRRTYYGDQVK,GRATGTFDS
nd,0/3,GETLNSQGFS,VIYSDGRRTFYGDSVK,GRAAGTFDS
nd,0/3,GFTLNSYGIS,VGYSDGTRTFYGDKVK,GRAAGTFDS
nd,0/3,GFTLNSYGWS,VIASTGRRTFYGDSVK,GRAAGTFDS
nd,0/3,GFTLNSYGIS,VIYHDGRRTFYGDSVK,GRAAGTFKQ
nd,0/3,GFTLNSYGIS,VIYSDGRPTFVGDSVK,GRAAGTFYS
nd,0/3,GFTSNSYGIS,VIYSDGRRTFPGDSVK,GRAAGTFDS
nd,0/3,GFTLNSYGIS,VIYLDGRRTFMGDSVK,GRAAGTFDS
nd,0/3,GFNLNSYGIS,LIYSDGRRTFYGDSVK,GRAAGWFDS
nd,0/3,IFTLNSYGIS,VIYSDGRRTFYGDSVK,GRAAITFDS
nd,0/3,GFTLNSYGIS,VIYSVGRRTFYGDSVK,GRAAQTFDL
nd,0/3,IFTLNSYGIS,VIYSDGRRTMYGDSVK,GRAAYTFDS
nd,0/3,GFTLNRYGIS,VIYIKGRRTFYGDSVK,GRAAGTFDS
nd,0/3,GFTLNSYGIS,VIYSMGRRTFYGGSVK,GRQAGTFDS
nd,0/3,GFTLNSYGIS,VIVSDGRGTFYGDSVK,GRAEGTFDS
nd,0/3,GFTLVSYGIS,VIYSDGRRTFYPDSVK,GRPAGTFDS
nd,0/3,GFTSNSYGIS,VIYSDGARTFYGDSVK,GRAAGTFSS
nd,0/3,GFTCNSYGIA,VITSDGRRTFYGDSVK,GRAAGTFDS
nd,0/3,GFTINSYGIS,VIYSDLRRTFYGDSVN,GRAAGTFDS
nd,0/3,GFTLNIYGRS,VIYSTGRRTFYGDSVK,GRAAGTFDS
nd,0/3,GFTLNSYGIS,SIYSDGRRTFYGDMVK,GRNAGTFDS
nd,0/3,GFTLSSYGIS,VIYSDGRRTDYGDSVK,GRAAGTFSS
nd,0/3,GFTLNSYGIS,VIYSFGERTFYGDSVK,GRAAGTWDS
nd,0/3,GFTLNSYGIS,VTYSDGRRTFYQMSVK,GRAAGTFDS

Picked from the list: the 8 lowest averages where every replicate gave a value.

| CDR-H1 | CDR-H2 | CDR-H3 | apparent Kd | detected |
|---|---|---|---|---|
| GFTLNSYGIS | VIYADGRRTFYHDSVK | GSAAGTFDS | 1.7 nM | 3/3 |
| GFTLNHYGIS | VVYSDGRRTFYGDSVK | GRAAGTFDS | 130 nM | 3/3 |
| GFTLNSYGIS | VIYSDGRRTFYKNSVK | GRAMGTFDS | 150 nM | 3/3 |
| GFTLNSYGIS | VIYSDGLRTFYGDSVR | GRAAGTFAS | 1.0 µM | 3/3 |
| GNTLNSYGIS | VIYSDGRRTFYGDSVK | GNAARTFDS | 2.8 µM | 3/3 |
| GFTLNSYGIS | VIYSDGRRTFYGDSTK | GRQAGTFTS | 5.0 µM | 3/3 |
| GFTLNSYGIS | VIYSDKRRTFYGDCVH | GRAAGTFDS | 23 µM | 3/3 |
| GFTLNSFGIL | VIYSDGRRTFYGDSDK | GRAAGTFDS | 170 µM | 3/3 |

Values reported by Engelhart et al. 2022, doi:10.1038/s41597-022-01779-4 (FLAb copy).